In patent US20220283175A1, “METALLOENZYMES FOR BIOMOLECULAR RECOGNITION OF N-TERMINAL MODIFIED PEPTIDES” (Encodia, Inc., priority 2020, published 2022):

Target: human carbonic anhydrase II (hCAII) (Homo sapiens, UniProt P00918)
Experiment: hCAII functional assay (hydrolysis of p-nitrophenylacetate, pNP release)
Format: biochemical
Protocol: A functional assay for hCAII enzyme was set up. Carbonic anhydrase catalyzes the hydrolysis of 4-nitrophenyl acetate (4-NPA) to nitrophenol, which can be monitored by absorbance at 400 nm. The enzymatic carbonic anhydrase assay generally includes 0.2-1.0 μM enzyme and 10-500 μM 4-NPA in 20-200 μL in assay buffer. […] Metal chelating agents (EDTA or EGTA), salt (NaCl, sulfate), detergent (Tween or Triton), and organic additives (acetonitrile, DMSO) may be employed to facilitate enzyme stability and reagent solubility. For the assay, 1 μM human carbonic anhydrase II, 50 mM MOPS (pH 7.6), 33 mM disodium sulfate, and 1 mM EDTA. To generate NTM-modified peptides, azide-derivatized peptides (via azide-PEG-amine and carbodiimide coupling to C-terminus of peptide) were conjugated to DBCO-coupled beads. […] To evaluate P1 dependence of the binding reaction, multiple P1 residues has been tested.

- IC50 (1 μM hCAII, 500 μM pNP-OAc, 10 min at 37° C.): 152 µM
- binding/inhibition (native (unmodified) peptide): No significant binding/inhibition
Structure (SMILES): C[C@H](NC(=O)[C@H](C)NC(=O)[C@@H](N)Cc1ccccc1)C(=O)N[C@@H](C)C(=O)N[C@@H](CCC(=O)O)C(=O)O [FAAAE, reference compound]
